The target of data set [1] is Mouse fibrinogen (UniProt E9PV24).
Data set [2] addresses Plasma derived human fibrinogen (reference protein) (UniProt P02671).
Data set [3] addresses Recombinant human fibrinogen from the milk of transgenic mice (UniProt P02671).

In turn, Human thrombin displayed a % FPA yield, T = 24 hours (mouse plasma) in data set [1] of 5%. For the same substance, in data set [2], the % FPA yield, T = 24 hours (fibrinopeptide A released, EIA) came out at 100%; the % FPA yield, T = 24 hours (hFIB spiked into non-transgenic whey, pellet-2) was 75%; the Fibrinogen µg/ml (ELISA) left in supernatant at T = 24 hours of thrombin treatment (100 at T = 0) is 0.1 µg/mL; the Fibrinogen µg/ml (ELISA) left in supernatant at T = 24 hours of thrombin treatment (spiked NTG whey pellet-2, 50 at T = 0) is 0.1 µg/mL. Also, the % FPA yield, T = 24 hours (transgenic whey pellet-2) in data set [3] was found to be 60%.
